# Earlier results, collected in patent publication US20140030311A1, “MONOLITHIC INTRAVAGINAL RINGS COMPRISING PROGESTERONE AND METHODS OF MAKING AND USES THEREOF” (TEVA WOMEN'S HEALTH, INC., priority 2009, published 2014).
# Tested on: IVF cycles
# Conditions: luteal phase support in IVF cycles; Soliman et al. 1994; cited from earlier work
substance,measurement,value
"hCG: human chorionic gonadotropin, used for luteal phase support",pregnancy rates versus placebo,significantly higher pregnancy rates than placebo
